Source: BindingDB's records for doi:10.1016/S0893-133X(01)00298-6 (Eli Lilly, 2001)

Target: Norepinephrine transporter (Rattus norvegicus, UniProt Q9JIA2)

With `CNCC[C@H](Oc1cccc2ccccc12)c1cccs1` [DULOXETINE] the Ki was 3.6 nM.
